We go through 8 molecules from PubChem BioAssay AID651955 (The Scripps Research Institute Molecular Screening Center, 2012).

By UniProt entry, the sequences of proteins in these tests, tags left out.
UniProt Q96RJ0, whole entry: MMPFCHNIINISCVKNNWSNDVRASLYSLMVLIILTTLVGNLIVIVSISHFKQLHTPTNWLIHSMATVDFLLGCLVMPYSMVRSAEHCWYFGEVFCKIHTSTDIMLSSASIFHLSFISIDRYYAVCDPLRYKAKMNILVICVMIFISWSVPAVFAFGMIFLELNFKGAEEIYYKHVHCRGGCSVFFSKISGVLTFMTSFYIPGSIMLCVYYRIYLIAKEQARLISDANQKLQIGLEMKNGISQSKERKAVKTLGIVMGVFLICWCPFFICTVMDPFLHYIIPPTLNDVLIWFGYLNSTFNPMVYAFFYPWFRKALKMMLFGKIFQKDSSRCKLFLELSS

Molecules are shown by their SMILES. Only a part is listed here, and it is no random draw. The source made the active and inactive calls. No stated cut-off is given here; in the data, active means activation above about 37%; inactive means the rest.

This assay addresses Trace amine-associated receptor 1 (Homo sapiens) (UniProt Q96RJ0). Description: TAAR1 activation by candidate antagonists – cell-based, fluorescence, counter-screen for TAAR1 antagonist project (AID 651955).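 Further: CHO cells stably expressing TAAR1 with calcium dye readout; 0% = DMSO vehicle and 100% = full agonist response.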 The conditions noted are these: hTAAR1 cell line, agonist mode, at 3 µM, active compounds read high. For orientation: Counterscreens check selectivity or assay interference.
Consider `CCCCn1nnnc1C(c1cc2ccccc2o1)N1CCC(n2c(=O)[nH]c3ccccc32)CC1` (stereo not drawn), for which the activation is inactive: 13.2%.

Turning to `O=c1[nH]c2ccccc2n1C1CCN(C(c2ccccc2)c2nnnn2C2CCCCC2)CC1` (stereo not drawn), the activation is inactive: 25.7%. As for `COc1cccc(C(c2nnnn2C2CCCC2)N2CCC(n3c(=O)[nH]c4ccccc43)CC2)c1OC` (stereo not drawn), the activation is inactive: 33.9%. Under `O=c1[nH]c2ccccc2n1C1CCN(C(c2ccnc3ccccc23)c2nnnn2C2CCCCC2)CC1` (stereo not drawn) stands active: 46.5%; under `O=c1[nH]c2ccccc2n1C1CCN(C(c2ccccc2)c2nnnn2C2CCCC2)CC1` (stereo not drawn), inactive: 16.5%; under `CCCCn1nnnc1C(c1ccccc1)N1CCC(n2c(=O)[nH]c3ccccc32)CC1` (stereo not drawn), inactive: 14.4%.

`O=c1[nH]c2ccccc2n1C1CCN(C(c2cccs2)c2nnnn2C2CCCCC2)CC1` (stereo not drawn): the activation was inactive: 35.7%. Under `O=c1[nH]c2ccccc2n1C1CCN(C(c2cccs2)c2nnnn2C2CCCC2)CC1` (stereo not drawn) stands active: 38.8%.
